# According to ChEMBL document CHEMBL5380856, “Development of Orally Bioavailable Amidobenzimidazole Analogues Targeting Stimulator of Interferon Gene (STING) Receptor” (J Med Chem, 2023):
# The source made the active and inactive calls. No cut-off for these calls is given here.
# System: CT26
# Settings: Mus musculus, dose 0.2 mg/kg, route it(Intratumoral), time 8.0 day
smiles,measurement,value
CCn1nc(C)cc1C(=O)Nc1nc2cc(C(N)=O)cc(OC)c2n1CCCNc1ncc(-c2ccccc2C(F)(F)F)o1,inhibition,Active
